Experimental data as given in patent publication US10071995B2, “Substituted oxopyridine derivatives” (BAYER PHARMA AKTIENGESELLSCHAFT, priority 2014, dated 2018).

Amino acid sequences for entries named in this document (tags omitted). Residues count along the entry.
UniProt P03951, 19-387 partner: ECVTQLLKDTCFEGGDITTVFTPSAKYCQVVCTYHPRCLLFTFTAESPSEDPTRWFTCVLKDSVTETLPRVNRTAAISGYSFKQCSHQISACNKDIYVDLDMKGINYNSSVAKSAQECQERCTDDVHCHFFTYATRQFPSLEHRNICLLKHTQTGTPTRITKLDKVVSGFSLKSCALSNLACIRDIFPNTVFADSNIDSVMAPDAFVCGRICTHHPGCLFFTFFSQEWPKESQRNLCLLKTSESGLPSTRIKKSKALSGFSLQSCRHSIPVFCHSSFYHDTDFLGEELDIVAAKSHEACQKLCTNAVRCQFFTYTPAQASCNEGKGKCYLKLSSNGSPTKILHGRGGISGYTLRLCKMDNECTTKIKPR
UniProt P03951, 388-625: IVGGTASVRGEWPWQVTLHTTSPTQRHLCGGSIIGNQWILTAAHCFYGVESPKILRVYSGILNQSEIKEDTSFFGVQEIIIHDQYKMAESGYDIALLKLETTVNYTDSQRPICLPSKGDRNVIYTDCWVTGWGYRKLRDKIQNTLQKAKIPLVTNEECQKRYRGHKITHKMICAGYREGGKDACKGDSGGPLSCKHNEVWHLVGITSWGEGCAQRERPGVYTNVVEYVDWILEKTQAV
UniProt P03952, 20-390 partner: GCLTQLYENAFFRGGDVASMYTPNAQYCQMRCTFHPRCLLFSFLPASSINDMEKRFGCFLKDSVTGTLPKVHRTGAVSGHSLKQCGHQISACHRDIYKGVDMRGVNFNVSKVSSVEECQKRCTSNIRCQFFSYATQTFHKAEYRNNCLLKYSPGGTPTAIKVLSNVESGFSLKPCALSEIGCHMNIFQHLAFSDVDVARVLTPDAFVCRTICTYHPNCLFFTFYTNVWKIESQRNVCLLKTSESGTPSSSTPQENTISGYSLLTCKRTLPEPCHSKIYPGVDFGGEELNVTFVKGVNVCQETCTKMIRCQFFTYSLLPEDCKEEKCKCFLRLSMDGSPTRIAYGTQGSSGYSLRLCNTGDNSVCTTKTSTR
UniProt P03952, 391-638: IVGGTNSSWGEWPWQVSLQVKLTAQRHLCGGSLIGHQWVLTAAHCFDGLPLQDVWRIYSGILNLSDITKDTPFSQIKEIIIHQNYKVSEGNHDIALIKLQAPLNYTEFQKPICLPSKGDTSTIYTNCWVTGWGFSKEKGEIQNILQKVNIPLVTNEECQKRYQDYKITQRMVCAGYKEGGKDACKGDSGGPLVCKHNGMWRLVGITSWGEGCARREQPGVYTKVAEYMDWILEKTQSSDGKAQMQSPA

Legend:
human factor XIa = human factor XIa (Homo sapiens (Human), UniProt P03951); experiment: Measurement of FXIa inhibition (fluorogenic peptide substrate); format: biochemical; conditions: factor XIa from Kordia, substrate Boc-Glu(OBzl)-Ala-Arg-AMC, 22° C., 30 min
Method: (§1) The factor XIa inhibition of the substances according to the invention is determined using a biochemical test system which utilizes the reaction of a peptidic factor XIa substrate to determine the enzymatic activity of human factor XIa. Here, factor XIa cleaves from the peptic factor XIa substrate the C-terminal aminomethylcoumarin (AMC), the fluorescence of which is measured. The determinations are carried out in microtitre plates.
Test substances are dissolved in dimethyl sulphoxide and serially diluted in dimethyl sulphoxide (3000 μM to 0.0078 μM; resulting final concentrations in the test: 50 μM to 0.00013 μM). 1 μl of the diluted substance solutions is placed into each of the wells of white microtitre plates from Greiner (384 wells). 20 μl of assay buffer (50 mM of Tris/HCl pH 7.4; 100 mM of sodium chloride; 5 mM of calcium chloride; 0.1% of bovine serum albumin) and 20 μl of factor XIa from Kordia (0.45 nM in assay buffer) are then added successively. After 15 min of incubation, the enzyme reaction is started by addition of 20 μl of the factor XIa substrate Boc-Glu(OBzl)-Ala-Arg-AMC dissolved in assay buffer (10 μM in assay buffer) from Bachem, the mixture is incubated at room temperature (22° C.) for 30 min and fluorescence is then measured (excitation: 360 nm, emission: 460 nm). The measured emissions of the test batches with test substance are compared to those of control batches without test substance (only dimethyl sulphoxide instead of test substance in dimethyl sulphoxide), and IC50 values are calculated from the concentration/activity relationships.

human plasma kallikrein = human plasma kallikrein (Homo sapiens (Human), UniProt P03952); experiment: Determination of the plasma kallikrein activity (fluorogenic peptide substrate); format: biochemical; conditions: plasma kallikrein from Kordia, substrate H-Pro-Phe-Arg-AMC, 22° C., 30 min
Method: as §1, with “To determine the plasma kallikrein” for “The factor XIa”, “invention,” for “invention is determined using”, “system is used” for “system”, “plasma kallikrein” for “factor XIa”, “plasma kallikrein.” for “factor XIa.”
Test substances are dissolved in dimethyl sulphoxide and serially diluted in dimethyl sulphoxide (3000 μM to 0.0078 μM; resulting final concentrations in the test: 50 μM to 0.00013 μM). 1 μl of the diluted substance solutions is placed into each of the wells of white microtitre plates from Greiner (384 wells). 20 μl of assay buffer (50 mM Tris/HCl pH 7.4; 100 mM sodium chloride solution; 5 mM of calcium chloride solution; 0.1% of bovine serum albumin) and 20 μl of plasma kallikrein from Kordia (0.6 nM in assay buffer) are then added successively. After 15 min of incubation, the enzyme reaction is started by addition of 20 μl of the substrate H-Pro-Phe-Arg-AMC dissolved in assay buffer (10 μM in assay buffer) from Bachem, the mixture is incubated at room temperature (22° C.) for 30 min and fluorescence is then measured (excitation: 360 nm, emission: 460 nm). The measured emissions of the test batches with test substance are compared to those of control batches without test substance (only dimethyl sulphoxide instead of test substance in dimethyl sulphoxide), and IC50 values are calculated from the concentration/activity relationships.

SMILES	IC50 (human factor XIa)	IC50 (human plasma kallikrein)
COCCC(C(=O)Nc1ccc(C(N)=O)s1)n1cc(OC)c(-c2cc(Cl)ccc2C#N)cc1=O (racemic) [Example 1, 5-({2-[4-(5-Chloro-2-cyanophenyl)-5-methoxy-2-oxopyridin-1(2H)-yl]-4-methoxybutanoyl}amino)-thiophene-2-carboxamide (racemate)]	7 nM	3 nM
COc1cn(C(Cc2ccccn2)C(=O)Nc2cc(F)c(C(N)=O)s2)c(=O)cc1-c1cc(Cl)ccc1C#N (racemic) [Example 3, 5-({2-[4-(5-Chloro-2-cyanophenyl)-5-methoxy-2-oxopyridin-1(2H)-yl]-3-(pyridin-2-yl)propanoyl}-amino)-3-fluorothiophene-2-carboxamide (racemate)]	–	68 nM
COc1cn(C(Cc2cccnc2)C(=O)Nc2cc(F)c(C(N)=O)s2)c(=O)cc1-c1cc(Cl)ccc1C#N (racemic) [Example 5, 5-({2-[4-(5-Chloro-2-cyanophenyl)-5-methoxy-2-oxopyridin-1(2H)-yl]-3-(pyridin-3-yl)propanoyl}-amino)-3-fluorothiophene-2-carboxamide (racemate)]	42 nM	38 nM
COCCC(C(=O)Nc1ccc(C(=O)O)s1)n1cc(OC)c(-c2cc(Cl)ccc2C#N)cc1=O (racemic) [Example 7, 5-({2-[4-(5-Chloro-2-cyanophenyl)-5-methoxy-2-oxopyridin-1(2H)-yl]-4-methoxybutanoyl}amino)-thiophene-2-carboxylic acid (racemate)]	–	7.6 nM
CNC(=O)c1ccc(NC(=O)C(CCOC)n2cc(OC)c(-c3cc(Cl)ccc3C#N)cc2=O)s1 (racemic) [Example 11, 5-({2-[4-(5-Chloro-2-cyanophenyl)-5-methoxy-2-oxopyridin-1(2H)-yl]-4-methoxybutanoyl}amino)-N-methylthiophene-2-carboxamide (racemate)]	4.6 nM	2.7 nM
COc1cn(C(Cc2ccn(C)n2)C(=O)Nc2ccc(C(N)=O)s2)c(=O)cc1-c1cc(Cl)ccc1C#N (racemic) [Example 13, 5-({2-[4-(5-Chloro-2-cyanophenyl)-5-methoxy-2-oxopyridin-1(2H)-yl]-3-(1-methyl-1H-pyrazol-3-yl)propanoyl}amino)thiophene-2-carboxamide (racemate)]	4.1 nM	–
CNC(=O)c1ccc(NC(=O)C(Cc2cnco2)n2cc(OC)c(-c3cc(Cl)ccc3C#N)cc2=O)s1 (racemic) [Example 17, 5-({2-[4-(5-Chloro-2-cyanophenyl)-5-methoxy-2-oxopyridin-1(2H)-yl]-3-(1,3-oxazol-5-yl)-propanoyl}amino)-N-methylthiophene-2-carboxamide (racemate)]	–	2.7 nM
COc1cn(C(Cc2ccccn2)C(=O)Nc2ccc(C(=O)O)s2)c(=O)cc1-c1cc(Cl)ccc1C#N (racemic) [Example 18, 5-({2-[4-(5-Chloro-2-cyanophenyl)-5-methoxy-2-oxopyridin-1(2H)-yl]-3-(pyridin-2-yl)propanoyl}-amino)thiophene-2-carboxylic acid (racemate)]	–	6 nM
CNC(=O)c1ccc(NC(=O)C(CCOC)n2cc(OC)c(-c3cc(Cl)ccc3C#N)cc2=O)s1 (single isomer, unassigned; enantiomer 1) [Example 12, 5-({2-[4-(5-Chloro-2-cyanophenyl)-5-methoxy-2-oxopyridin-1(2H)-yl]-4-methoxybutanoyl}amino)-N-methylthiophene-2-carboxamide (enantiomer 1)]	2.5 nM	1.7 nM
